Test [1] deals with human adenosine A2A receptor (Homo sapiens, UniProt P29274). The experiment in a line: Human adenosine A2A receptor [3H]-SCH-58261 binding assay.
Another test concerns the target HA1 adenosine receptor (Homo sapiens, UniProt P30542). The experiment in a line: Human adenosine A1 receptor affinity (Ki hA1). Type of test: binding. Particulars: read-out: Ki HA1; affinity to human adenosine A1 receptor.

Amino acid sequences for entries named in this document (tags omitted).
UniProt P30542, whole entry: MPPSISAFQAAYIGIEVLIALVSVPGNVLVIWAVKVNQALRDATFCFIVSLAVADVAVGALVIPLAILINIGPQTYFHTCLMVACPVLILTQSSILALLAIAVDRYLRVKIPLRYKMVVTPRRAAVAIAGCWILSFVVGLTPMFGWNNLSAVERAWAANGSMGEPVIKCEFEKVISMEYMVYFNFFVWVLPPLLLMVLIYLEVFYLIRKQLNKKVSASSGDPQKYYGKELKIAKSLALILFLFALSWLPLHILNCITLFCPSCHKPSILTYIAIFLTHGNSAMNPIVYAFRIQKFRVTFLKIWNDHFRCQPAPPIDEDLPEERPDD

Our source for the selectivity (A1/A2a) and Ki values is patent US6506772B1, “Substituted [1,2,4]triazolo[1,5a]pyridine derivatives with activity as adenosine receptor ligands” (Hoffmann-La Roche Inc., priority 2000, dated 2003).

As for `Cc1ccc(-c2nc3cc(C(=O)NC4CCc5ccccc54)cc(N)n3n2)o1` (stereo not drawn), the selectivity (A1/A2a) in test [1] (calculated ratio of the affinity to the HA1 receptor to the HA2a receptor) was 8.2. Besides, the Ki (commonly a measure of affinity in units of concentration, obtained from inhibition or displacement) in test [1] (read-out: Ki HA2A, affinity to human adenosine A2A receptor) was found to be 0.0392 µM; on HA1 adenosine receptor, 0.32 µM.
